This is an account of results in ChEMBL document CHEMBL1154195, “Synthesis and binding affinity of potential atypical antipsychotics with the tetrahydroquinazolinone motif” (Bioorg Med Chem Lett, 2009).

Amino acid sequences for entries named in this document (tags omitted).
UniProt P21728, whole entry: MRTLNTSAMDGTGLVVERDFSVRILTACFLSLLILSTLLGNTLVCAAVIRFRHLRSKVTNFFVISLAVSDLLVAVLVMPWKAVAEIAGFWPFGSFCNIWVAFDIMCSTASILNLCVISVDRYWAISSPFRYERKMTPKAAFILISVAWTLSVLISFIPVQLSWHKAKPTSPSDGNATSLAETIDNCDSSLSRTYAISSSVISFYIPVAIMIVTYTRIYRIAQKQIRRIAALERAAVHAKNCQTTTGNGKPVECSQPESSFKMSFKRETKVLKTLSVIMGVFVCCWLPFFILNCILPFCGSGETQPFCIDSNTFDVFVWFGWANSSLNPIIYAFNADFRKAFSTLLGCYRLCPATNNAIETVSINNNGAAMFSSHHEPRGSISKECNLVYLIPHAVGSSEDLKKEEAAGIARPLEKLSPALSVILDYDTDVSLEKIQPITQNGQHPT

One assay deals with D(1A) dopamine receptor (Homo sapiens, UniProt P21728).
The species entered for the next assay is Homo sapiens. Nature of the assay: Ratio of pKi for human cloned 5HT2A receptor to pKi for human cloned dopamine D2 receptor.

The structures appear in SMILES notation.

One may read the Ki as a dissociation constant, usually derived from enzyme kinetics or from competition with a known ligand. A low value points to higher affinity. Regarding `CSc1ncc2c(n1)CC(CN1CCC(c3noc4cc(F)ccc34)CC1)CC2=O` (configuration not stated), the inhibition constant Ki on D(1A) dopamine receptor was 33.1 nM. For the same compound, in the assay filed under Homo sapiens, the Ratio pKi came out at 1.11.
